The labels stand for the following.
B1: wild-type CD44 standard form (wt CD44) [not stated] / iASPP (in lysates of cells transfected with CD44 constructs) [not stated] (parent complex)
chain 1: QIDLNITCRFAGVFHVEKNGRYSISRTEAADLCKAFNSTLPTMAQMEKALSIGFETCRYGFIEGHVVIPRIHPNSICAANNTGVYILTSNTSQYDTYCFNASAPPEEDCTSVTDLPNAFDGPITITIVNRDGTRYVQKGEYRTNPEDIYPSNPTDDDVSSGSSSERSSTSGGYIFYTFSTVHPIPDEDSPWITDSTDRIPATRDQDTFHPSGGSHTTHGSESDGHSHGSQEGGANTTSGPIRTPQIPEWLIILASLLALALILAVCIAVNSRRRCGQKKKLVINSGNGAVEDRKPSGLNGEASKSQEMVHLVNKESSETPDQFMTADETRNLQNVDMKIGV
chain 2: MDSEAFQSARDFLDMNFQSLAMKHMDLKQMELDTAAAKVDELTKQLESLWSDSPAPPGPQAGPPSRPPRYSSSSIPEPFGSRGSPRKAATDGADTPFGRSESAPTLHPYSPLSPKGRPSSPRTPLYLQPDAYGSLDRATSPRPRAFDGAGSSLGRAPSPRPGPGPLRQQGPPTPFDFLGRAGSPRGSPLAEGPQAFFPERGPSPRPPATAYDAPASAFGSSLLGSGGSAFAPPLRAQDDLTLRRRPPKAWNESDLDVAYEKKPSQTASYERLDVFARPASPSLQLLPWRESSLDGLGGTGKDNLTSATLPRNYKVSPLASDRRSDAGSYRRSLGSAGPSGTLPRSWQPVSRIPMPPSSPQPRGAPRQRPIPLSMIFKLQNAFWEHGASRAMLPGSPLFTRAPPPKLQPQPQPQPQPQSQPQPQLPPQPQTQPQTPTPAPQHPQQTWPPVNEGPPKPPTELEPEPEIEGLLTPVLEAGDVDEGPVARPLSPTRLQPALPPEAQSVPELEEVARVLAEIPRPLKRRGSMEQAPAVALPPTHKKQYQQIISRLFHRHGGPGPGGPEPELSPITEGSEARAGPPAPAPPAPIPPPAPSQSSPPEQPQSMEMRSVLRKAGSPRKARRARLNPLVLLLDAALTGELEVVQQAVKEMNDPSQPNEEGITALHNAICGANYSIVDFLITAGANVNSPDSHGWTPLHCAASCNDTVICMALVQHGAAIFATTLSDGATAFEKCDPYREGYADCATYLADVEQSMGLMNSGAVYALWDYSAEFGDELSFREGESVTVLRRDGPEETDWWWAALHGQEGYVPRNYFGLFPRVKPQRSKV

The variants in one test derive from B1. Kind of test: co-immunoprecipitation (IP: iASPP, IB: CD44), densitometry; MCF-7 cells, transient transfection; parent: 1; read off a plot.
Consider chain 1 QIDLNITCRFAGVFHVEKNGRYSISRTEAADLCKAFNSTLPTMAQMEKALSIGFETCRYGFIEGHVVIPRIHPNSICAANNTGVYILTSNTSQYDTYCFNASAPPEEDCTSVTDLPNAFDGPITITIVNRDGTRYVQKGEYRTNPEDIYPSNPTDDDVSSGSSSERSSTSGGYIFYTFSTVHPIPDEDSPWITDSTDRIPATRDQDTFHPSGGSHTTHGSESDGHSHGSQEGGANTTSGPIRTPQIPEWLIILASLLALALILAVCIAVNSRRRCGQKKKLVINSGNGAVEDRKPSGLNGEASKAQEMVHLVNKESSETPDQFMTADETRNLQNVDMKIGV [chain 1 S305A], for which the response was approximately 0.52.

For the variant chain 1 QIDLNITCRFAGVFHVEKNGRYSISRTEAADLCKAFNSTLPTMAQMEKALSIGFETCRYGFIEGHVVIPRIHPNSICAANNTGVYILTSNTSQYDTYCFNASAPPEEDCTSVTDLPNAFDGPITITIVNRDGTRYVQKGEYRTNPEDIYPSNPTDDDVSSGSSSERSSTSGGYIFYTFSTVHPIPDEDSPWITDSTDRIPATRDQDTFHPSGGSHTTHGSESDGHSHGSQEGGANTTSGPIRTPQIPEWLIILASLLALALILAVCIAVNSRRRCGQKKKLVINSGNGAVEDINPSGLNGEASKSQEMVHLVNKESSETPDQFMTADETRNLQNVDMKIGV [chain 1 R293I, chain 1 K294N], the response was approximately 0.2.

Take chain 1 QIDLNITCRFAGVFHVEKNGRYSISRTEAADLCKAFNSTLPTMAQMEKALSIGFETCRYGFIEGHVVIPRIHPNSICAANNTGVYILTSNTSQYDTYCFNASAPPEEDCTSVTDLPNAFDGPITITIVNRDGTRYVQKGEYRTNPEDIYPSNPTDDDVSSGSSSERSSTSGGYIFYTFSTVHPIPDEDSPWITDSTDRIPATRDQDTFHPSGGSHTTHGSESDGHSHGSQEGGANTTSGPIRTPQIPEWLIILASLLALALILAVCIAVNSRRRCGQKKKLVINSGNGAVEDRKPAGLNGEASKSQEMVHLVNKESSETPDQFMTADETRNLQNVDMKIGV [chain 1 S296A]: the response is approximately 1.1.

Consider chain 1 QIDLNITCRFAGVFHVEKNGRYSISRTEAADLCKAFNSTLPTMAQMEKALSIGFETCRYGFIEGHVVIPRIHPNSICAANNTGVYILTSNTSQYDTYCFNASAPPEEDCTSVTDLPNAFDGPITITIVNRDGTRYVQKGEYRTNPEDIYPSNPTDDDVSSGSSSERSSTSGGYIFYTFSTVHPIPDEDSPWITDSTDRIPATRDQDTFHPSGGSHTTHGSESDGHSHGSQEGGANTTSGPIRTPQIPEWLIILASLLALALILAVCIAVNSAAACGQAAALVINSGNGAVEDRKPSGLNGEASKSQEMVHLVNKESSETPDQFMTADETRNLQNVDMKIGV [chain 1 R272A, chain 1 R273A, chain 1 R274A, chain 1 K278A, chain 1 K279A, chain 1 K280A], for which the response is approximately 0.18.

chain 1 QIDLNITCRFAGVFHVEKNGRYSISRTEAADLCKAFNSTLPTMAQMEKALSIGFETCRYGFIEGHVVIPRIHPNSICAANNTGVYILTSNTSQYDTYCFNASAPPEEDCTSVTDLPNAFDGPITITIVNRDGTRYVQKGEYRTNPEDIYPSNPTDDDVSSGSSSERSSTSGGYIFYTFSTVHPIPDEDSPWITDSTDRIPATRDQDTFHPSGGSHTTHGSESDGHSHGSQEGGANTTSGPIRTPQIPEWLIILASLLALALILAVCIAVNARRRCGQKKKLVINSGNGAVEDRKPSGLNGEASKSQEMVHLVNKESSETPDQFMTADETRNLQNVDMKIGV [chain 1 S271A]: the response was approximately 0.52.

The next test covers variants of B1. Kind of test: co-immunoprecipitation (IP: iASPP, IB: CD44), densitometry; HEK293 cells, transient transfection; parent: 0.58; read off a plot.
chain 1 QIDLNITCRFAGVFHVEKNGRYSISRTEAADLCKAFNSTLPTMAQMEKALSIGFETCRYGFIEGHVVIPRIHPNSICAANNTGVYILTSNTSQYDTYCFNASAPPEEDCTSVTDLPNAFDGPITITIVNRDGTRYVQKGEYRTNPEDIYPSNPTDDDVSSGSSSERSSTSGGYIFYTFSTVHPIPDEDSPWITDSTDRIPATRDQDTFHPSGGSHTTHGSESDGHSHGSQEGGANTTSGPIRTPQIPEWLIILASLLALALILAVCIAVNSRRRCGQKKKLVINSGNGAVEDRKPSGLNGEASKAQEMVHLVNKESSETPDQFMTADETRNLQNVDMKIGV [chain 1 S305A]: the response was approximately 0.77.

As for chain 1 QIDLNITCRFAGVFHVEKNGRYSISRTEAADLCKAFNSTLPTMAQMEKALSIGFETCRYGFIEGHVVIPRIHPNSICAANNTGVYILTSNTSQYDTYCFNASAPPEEDCTSVTDLPNAFDGPITITIVNRDGTRYVQKGEYRTNPEDIYPSNPTDDDVSSGSSSERSSTSGGYIFYTFSTVHPIPDEDSPWITDSTDRIPATRDQDTFHPSGGSHTTHGSESDGHSHGSQEGGANTTSGPIRTPQIPEWLIILASLLALALILAVCIAVNSRRRCGQKKKLVINSGNGAVEDRKPAGLNGEASKSQEMVHLVNKESSETPDQFMTADETRNLQNVDMKIGV [chain 1 S296A], the response was approximately 0.98.

In the case of chain 1 QIDLNITCRFAGVFHVEKNGRYSISRTEAADLCKAFNSTLPTMAQMEKALSIGFETCRYGFIEGHVVIPRIHPNSICAANNTGVYILTSNTSQYDTYCFNASAPPEEDCTSVTDLPNAFDGPITITIVNRDGTRYVQKGEYRTNPEDIYPSNPTDDDVSSGSSSERSSTSGGYIFYTFSTVHPIPDEDSPWITDSTDRIPATRDQDTFHPSGGSHTTHGSESDGHSHGSQEGGANTTSGPIRTPQIPEWLIILASLLALALILAVCIAVNSAAACGQAAALVINSGNGAVEDRKPSGLNGEASKSQEMVHLVNKESSETPDQFMTADETRNLQNVDMKIGV [chain 1 R272A, chain 1 R273A, chain 1 R274A, chain 1 K278A, chain 1 K279A, chain 1 K280A], the response was approximately 1.7.

Turning to chain 1 QIDLNITCRFAGVFHVEKNGRYSISRTEAADLCKAFNSTLPTMAQMEKALSIGFETCRYGFIEGHVVIPRIHPNSICAANNTGVYILTSNTSQYDTYCFNASAPPEEDCTSVTDLPNAFDGPITITIVNRDGTRYVQKGEYRTNPEDIYPSNPTDDDVSSGSSSERSSTSGGYIFYTFSTVHPIPDEDSPWITDSTDRIPATRDQDTFHPSGGSHTTHGSESDGHSHGSQEGGANTTSGPIRTPQIPEWLIILASLLALALILAVCIAVNARRRCGQKKKLVINSGNGAVEDRKPSGLNGEASKSQEMVHLVNKESSETPDQFMTADETRNLQNVDMKIGV [chain 1 S271A], the response was approximately 0.66.

Variants of B1 are the subject of another test. Kind of test: co-immunoprecipitation (IP: iASPP, IB: CD44), densitometry; HEK293 cells, transient transfection; parent: 1.1; read off a plot.
On to chain 1 QIDLNITCRFAGVFHVEKNGRYSISRTEAADLCKAFNSTLPTMAQMEKALSIGFETCRYGFIEGHVVIPRIHPNSICAANNTGVYILTSNTSQYDTYCFNASAPPEEDCTSVTDLPNAFDGPITITIVNRDGTRYVQKGEYRTNPEDIYPSNPTDDDVSSGSSSERSSTSGGYIFYTFSTVHPIPDEDSPWITDSTDRIPATRDQDTFHPSGGSHTTHGSESDGHSHGSQEGGANTTSGPIRTPQIPEWLIILASLLALALILAVCIAVNSRRRCGQKKKLVINSGNGAVEDINPSGLNGEASKSQEMVHLVNKESSETPDQFMTADETRNLQNVDMKIGV [chain 1 R293I, chain 1 K294N], for which the response was approximately 0.6.

With chain 1 QIDLNITCRFAGVFHVEKNGRYSISRTEAADLCKAFNSTLPTMAQMEKALSIGFETCRYGFIEGHVVIPRIHPNSICAANNTGVYILTSNTSQYDTYCFNASAPPEEDCTSVTDLPNAFDGPITITIVNRDGTRYVQKGEYRTNPEDIYPSNPTDDDVSSGSSSERSSTSGGYIFYTFSTVHPIPDEDSPWITDSTDRIPATRDQDTFHPSGGSHTTHGSESDGHSHGSQEGGANTTSGPIRTPQIPEWLIILASLLALALILAVCIAVNSAAACGQAAALVINSGNGAVEDRKPSGLNGEASKSQEMVHLVNKESSETPDQFMTADETRNLQNVDMKIGV [chain 1 R272A, chain 1 R273A, chain 1 R274A, chain 1 K278A, chain 1 K279A, chain 1 K280A], the response is approximately 2.4.

Values taken from PMC9954134 (2023).
